# From PubChem BioAssay
# Most compounds without a hit are left out; they make up all but 2.3% or so of the library.
# Nrf2 block: Nrf2 pathway inhibition; A549 ARE-Fluc reporter, luciferase luminescence, 18-24 h; Potency, µM (top dose mostly 46 µM), for inactives: at the top dose activity change, negative = inhibition, hits mostly inhibitors; actives 2.1% (n = 360,000); AID 504444; note: potency is the fitted concentration of half-maximal effect; % is set by controls: 0 for no effect and ±100 for the full control effect; nearly all actives have a fitted effect of over 60% in size
#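 A549 ARE_Fluc cells (5000/well, 5% FBS OPTI-MEM) pre-incubated 2 h, then treated with compounds 18-24 h at 37C/5% CO2 in concentration-response. CellTiter-Fluor viability read first; BugLite luciferase luminescence after 15 min at room temperature gives Nrf2 activity.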
# Mito fusion act: inhibitors of mitochondrial division or activators of mitochondrial fusion. Potency, µM (highest dose often 46.1 µM), for the others: at the top dose growth rescue (activation), usual class: activators. S. cerevisiae fusion-defective mutant growth rescue, CellTiterGlo 48 h. actives 0.23% (n = 320,000); note: potency is the fitted concentration of half-maximal effect; % of control where 0% means no effect; nearly all actives have a fitted effect of over 45% in size
#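 Growth-rescue viability read-out: after 48 h at the non-permissive 37C in glycerol/ethanol YPEG, yeast mitochondrial fusion mutants are measured by CellTiterGlo luminescence; compounds (23 nl pinned per well) restoring growth score as division inhibitors or fusion activators.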
# A549 tox: kills or reduces viability of A549 cells in Nrf2 counter-screen | A549 ARE-Fluc cells, CellTiter-Fluor viability, 18-24 h | Potency, µM (top dose mostly 46 µM), for inactives: top-dose activity change, negative = cytotoxicity, usual class: inhibitors | actives 0.16% (n = 390,000) | AID 504648; note: potency is the fitted concentration of half-maximal effect; % is set by controls: 0 for no effect and ±100 for the full control effect
#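 A549 ARE_Fluc cells in 5% FBS OPTI-MEM were exposed to compounds in concentration-response for 18-24 h at 37 deg C. Viability was read by CellTiter-Fluor fluorescence (Ex 405/Em 525) after 30 min, before the luciferase read.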
# Nrf2 activator: activates Nrf2 signaling; AREc32 ARE-luciferase reporter (MCF7-derived line), luminescence, 24 h; Potency, µM (titrated, usually from 46.1 µM), for the others: top-dose activation, most hits filed as activators; actives 0.31% (n = 410,000); note: potency is the fitted concentration of half-maximal effect; % of control where 0% means no effect; nearly all actives have a fitted effect of over 65% in size
#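 Nrf2 activation is followed as ARE-luciferase induction in the AREc32 line after one day of compound treatment; luminescence is read with Steady-Glo.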
# miR-21 reporter: miR-21 reporter, rising signal. 340,000 tested, under 10 active. Potency, µM (highest dose often 38.3 µM), for the others: at the highest dose reporter change, positive = more light. HeLa miR-21 FLuc reporter, luciferase, 48 h. AID 2288; active = well fitted rising curve with a large enough effect; inconclusive = small, poorly fitted or top-dose-only effect; inactive = no such curve, though single readings can be large or run the other way;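 further: % of control where 0% means no effect; miR-21 action dims this reporter so a rising signal means less miR-21 action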
#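 HeLa cells stably expressing CMV-driven firefly luciferase with a downstream miR-21 binding sequence, endogenously expressing miR-21, were treated with titrations (up to about 40uM final) for 48 hours at 37 degree Celsius. Luciferase luminescence was read after lysis.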
# An asterisk follows results filed as active; ? = inconclusive; nt = no result; [ ] = dose if it differs, or a comment. Unless noted, calls come from the whole dose curve; as a rule, active = well fitted curve in the direction sought with a large enough effect; inconclusive = small, poorly fitted or top-dose-only effect, or another doubt; inactive = no such curve, though single readings can be large; an effect the other way counts as inactive or inconclusive.
(1) Cc1c(Cc2ccccc2)c(=O)n2c([nH]c3ccccc32)c1C#N
(2) COC(=O)COc1ccc(-c2nccc(-c3ccccn3)n2)cc1
(3) COC(=O)COc1ccc(-c2nccc(-c3ccc(Br)cc3)n2)cc1
(4) COc1ccc(NC(=O)CSc2nc(-c3cc(OC)c(OC)c(OC)c3)[nH]c2-c2ccc(F)cc2)cc1
(5) Clc1nnc(NN=C2CCCC2)c2ccccc12
(6) CC(=O)Nc1ccc(C=NNc2nnc(NN=Cc3ccc(NC(C)=O)cc3)c3ccccc23)cc1
assay / compound	1	2	3	4	5	6
Nrf2 block	15µM*	7.3µM*	3%	?	?	18µM*
Mito fusion act	-13%	-13%	7%	nt	23%	nt
A549 tox	-21%	-8%	1%	?	-1%	-6%
Nrf2 activator	0%	-2%	0%	1%	10µM*	3%
miR-21 reporter	6%	25%	-2%	22%	-19%	nt

(7) Clc1ccc(/C=N/Nc2nnc(Cl)c3ccccc23)cc1
(8) C(=N\Nc1nncc2ccccc12)/c1ccccc1
(9) Cc1ccc(/C=N/Nc2nnc(Cl)c3ccccc23)cc1
(10) Cc1cccc(/C=N/Nc2nncc3ccccc23)c1
(11) Cc1ccc(Cl)cc1NC(=O)c1cc(CN2CCCC2)on1
(12) COC(=O)c1cc2oc3ccccc3c2n1CC(=O)Nc1cc(OC)cc(OC)c1
assay / compound	7	8	9	10	11	12
Nrf2 block	-14%	?	?	?	?	14%
Mito fusion act	-2%	-1%	29%	16%	nt	nt
A549 tox	-8%	4%	7%	-3%	-1%	-1%
Nrf2 activator	1.3µM*	11µM*	?	1%	3%	7%
miR-21 reporter	-26%	-53%	-70%	-13%	-15%	-30%

(13) COc1cccc(CNC(=O)c2cccc(-n3c(C)nc4cccnc43)c2)c1OC
(14) Cc1ccc(-n2nc(C)c(C(=O)NCCCN3CCN(c4cccc(Cl)c4)CC3)c2-n2cccc2)cc1
(15) O=C(CCS(=O)(=O)c1ccccc1)N(Cc1cccnc1)c1nc2c(Cl)cccc2s1
(16) CC(C)CC(=O)NC(=S)Nc1cccc(NC(=O)c2ccccc2)c1
(17) O=C(Nc1ccc(NC(=S)NC(=O)c2ccccc2Cl)cc1)c1cccc(Cl)c1
(18) Cc1c(F)cccc1NC(=O)C1CCCN1S(=O)(=O)c1ccc(F)cc1 (stereo unspecified)
assay / compound	13	14	15	16	17	18
Nrf2 block	-22%	16µM*	7%	15µM*	18µM*	-9%
Mito fusion act	nt	nt	nt	-20%	nt	nt
A549 tox	6%	?	-3%	-16%	2%	5%
Nrf2 activator	3%	-1%	2%	4%	5%	0%
miR-21 reporter	10%	?	2%	0%	nt	8%

(19) O=C1CC(c2ccccc2)CC(O)=C1C=Nc1ccccc1O (stereo unspecified)
(20) O=C1CC(c2ccco2)CC(O)=C1C=Nc1cc(Cl)ccc1Cl (stereo unspecified)
(21) O=C1CC(c2ccco2)CC(O)=C1C=Nc1cc(Cl)ccc1O (stereo unspecified)
(22) COc1ccc(NC(=O)c2ccco2)cc1NC(=O)c1cc(Br)ccc1Cl
(23) COc1ccccc1C(C[N+](=O)[O-])c1c(N)n(C)c(=O)n(C)c1=O (stereo unspecified)
(24) CN(C)S(=O)(=O)c1ccc(C(=O)Nc2nc(-c3cc4ccccc4o3)cs2)cc1
assay / compound	19	20	21	22	23	24
Nrf2 block	-16%	-13%	?	nt	12µM*	6.5µM*
Mito fusion act	5%	2%	1%	-7%	-16%	-4%
A549 tox	1%	-7%	-8%	4%	?	-18%
Nrf2 activator	14µM*	3%	10µM*	8%	?	0%
miR-21 reporter	2%	0%	3%	-1%	?	-11%

# Results in Mito fusion act and A549 tox, for some of the entries so far:
entry | compound | Mito fusion act | A549 tox
19 | O=C1CC(c2ccccc2)CC(O)=C1C=Nc1ccccc1O (stereo unspecified) | 5% | 1%
20 | O=C1CC(c2ccco2)CC(O)=C1C=Nc1cc(Cl)ccc1Cl (stereo unspecified) | 2% | -7%
21 | O=C1CC(c2ccco2)CC(O)=C1C=Nc1cc(Cl)ccc1O (stereo unspecified) | 1% | -8%
22 | COc1ccc(NC(=O)c2ccco2)cc1NC(=O)c1cc(Br)ccc1Cl | -7% | 4%

# New compounds follow.
(25) CN(CC1CCCO1)S(=O)(=O)c1ccc(C(=O)Nc2nc(-c3ccccn3)cs2)cc1 (stereo unspecified)
(26) Cc1cc(-c2csc(NC(=O)c3ccc(S(=O)(=O)N(C)C)cc3)n2)c(C)n1-c1ccccc1
(27) CC1CN(S(=O)(=O)c2ccc(C(=O)Nc3nc(-c4cc5ccccc5o4)cs3)cc2)CC(C)O1 (stereo unspecified)
(28) CC1CCN(S(=O)(=O)c2ccc3c(c2)N(CC(=O)NCCc2ccc(Cl)cc2)C(=O)CO3)CC1
(29) COc1ccc(CN(C)C(=O)CCc2ccc(S(=O)(=O)N3CCCCCC3)cc2)c(OC)c1
(30) COc1ccc(CN(C)C(=O)CCC(=O)N2CCN(S(=O)(=O)c3ccc(Cl)cc3)CC2)c(OC)c1
assay / compound	25	26	27	28	29	30
Nrf2 block	5.2µM*	?	3.7µM*	16%	?	12µM*
Mito fusion act	-14%	-2%	-5%	nt	6%	nt
A549 tox	?	2%	7.3µM*	1%	-19%	-14%
Nrf2 activator	2%	0%	0%	8%	1%	-1%
miR-21 reporter	11%	-4%	9%	13%	nt	nt

(31) Cc1cccc(-c2nc(Cn3c(=O)cc(-c4ccccc4)c4c(C)nn(C)c43)c(C)o2)c1
(32) Cc1nnc(SCc2ccccc2Cl)c2cc3occc3n12
(33) CC(=O)c1ccc(N2CCN(C(=O)Nc3ccc(C(C)C)cc3)CC2)cc1
(34) Cc1ccc(NC(=O)CSc2nc3nn(-c4ccccc4)c(=O)c-3c3n2CCCCC3)cc1F
(35) O=C(CSc1nc2nn(-c3ccccc3)c(=O)c-2c2n1CCCCC2)Nc1cccc(F)c1
(36) COc1cc(OC)cc(-c2nnc3n2N=C(c2ccc(OC)cc2OC)CS3)c1
assay / compound	31	32	33	34	35	36
Nrf2 block	36%	?	7.3µM*	?	9.2µM*	?
Mito fusion act	nt	nt	0%	nt	nt	nt
A549 tox	11%	-1%	?	-14%	-9%	-15%
Nrf2 activator	-1%	11%	2%	-2%	0%	nt
miR-21 reporter	-6%	-64%	?	nt	nt	nt

# Random excerpt: 2 entries already listed, in no set order.
(31) Cc1cccc(-c2nc(Cn3c(=O)cc(-c4ccccc4)c4c(C)nn(C)c43)c(C)o2)c1
(34) Cc1ccc(NC(=O)CSc2nc3nn(-c4ccccc4)c(=O)c-3c3n2CCCCC3)cc1F
assay / compound	31	34
Nrf2 block	36%	?
Mito fusion act	nt	nt
A549 tox	11%	-14%
Nrf2 activator	-1%	-2%
miR-21 reporter	-6%	nt

# Going on with the list.
(37) COc1ccc(CNc2ccc3c(c2)ncn3-c2ccccc2OC)cc1
(38) NC(=S)n1[nH]c(-c2ccc([N+](=O)[O-])cc2)c(N=Nc2cccc([N+](=O)[O-])c2)c1=O
(39) Cc1[nH]n(C(N)=S)c(=O)c1N=Nc1cccc([N+](=O)[O-])c1C
(40) NC(=S)n1[nH]c(-c2ccc([N+](=O)[O-])cc2)c(N=Nc2ccccc2[N+](=O)[O-])c1=O
(41) Cc1c(N=Nc2c(-c3ccc([N+](=O)[O-])cc3)[nH]n(C(N)=S)c2=O)cccc1[N+](=O)[O-]
(42) Cc1cccc(C(=O)Nc2ccc(N3CCC(CCN4CCOCC4)CC3)c(C(=O)O)c2)c1
assay / compound	37	38	39	40	41	42
Nrf2 block	18µM*	16µM*	?	13%	18µM*	nt
Mito fusion act	-8%	0%	2%	1%	2%	1%
A549 tox	-30%	?	-8%	6%	?	0%
Nrf2 activator	4%	4%[9.22 µM]	9%	11%	3%	-1%
miR-21 reporter	-3%	-2%	-36%	2%	-3%	2%

(43) O=C(NNC(=O)c1ccccc1[N+](=O)[O-])c1ccc(NS(=O)(=O)c2cccs2)cc1
(44) COc1cccc(Nc2ncccc2C(=O)Nc2ccccc2)c1
(45) CCOc1ccc(NC(=O)c2ccc(OC)cc2)cc1
(46) CCOc1ncccc1C(=O)Nc1ccc(C(=O)Nc2ccc(OC)cc2)cc1
(47) CCOc1ncccc1C(=O)NNC(=O)c1ccc(NS(=O)(=O)c2cccs2)cc1
assay / compound	43	44	45	46	47
Nrf2 block	5%	21µM*	?	8.2µM*	2%
Mito fusion act	2%	?	0%	11%	-3%
A549 tox	0%	?	0%	-15%	0%
Nrf2 activator	0%	2%	2%	-1%	2.5µM*
miR-21 reporter	-4%	-7%	-33%	nt	nt
